According to US11994512B2, “Single-cell genomic methods to generate ex vivo cell systems that recapitulate in vivo biology with improved fidelity” (Massachusetts Institute of Technology, priority 2018, dated 2024):

Test system: intracellular proteome of ENR+CD and ENR organoids
Test: LC-MS/MS TMT proteomics of ENR+CD versus ENR organoids
Format: cell-based, C57BL/6 mice
Excerpt: Because PCs are highly secretory, protein-rich cells, Applicants sought to assess the total intracellular proteome between conditions through liquid chromatography mass spectrometry (LC-MS/MS)-based proteomics. Applicants quantified relative protein abundance across eight samples using isobaric mass tag labeling from four ENR and four ENR+CD samples (M1-1 through M2-2, first digit denotes biological donor, second digit denotes technical replicate) (FIG. 3A). Samples were processed and analyzed in a single 10-plex by LC-MS/MS (FIG. 9A).
To affirm the reproducibility of the associated proteins in the ENR+CD-enriched proteome, Applicants performed relative quantification within differentiation sets.
Mass spectrometry proteomics sample preparation, sequencing, and quantification. Organoid cell pellets were isolated from Matrigel with mechanical dissociation and washed (cold PBS 5X) to remove residual extracellular protein. Proteins were extracted from cell pellets with 8 M urea (Sigma), reduced with 5 mM DTT (Thermo Fisher Pierce) for 45 minutes, alkylated with 10 mM IAA (Sigma) for 45 minutes in the dark, and double digested with both Lysyl Endopeptidase “LysC” (Wako) and trypsin (Promega) overnight at RT. A small aliquot of cellular lysate was removed from each sample for protein quantification via the Pierce™ BCA Protein Assay Kit (Pierce). After proteolytic digestion, the samples were quenched using formic acid to a final concentration of 1.0% and subsequently desalted on 10 mg OASIS HLB solid phase columns (Waters).
The peptides were labeled with TMT-10 isobaric mass tag reagent according to manufacturer's instructions (ThermoFisher Scientific). The peptides were labeled at a 1:8 ratio of peptide to TMT reagent, followed by 1-hour incubation at RT with bench top shaking at 850 rpm. After incubation, a […] of labeled tryptic peptide was removed from each labeled condition, desalted with C18 stage tips, and analyzed via LC-MS/MS using a Thermo Fisher Q Exactive Plus Hybrid Mass Spectrometer (QE-Plus) coupled to a Thermo Fisher EASY-nLC 1000 liquid chromatograph to ensure isobaric label incorporation >95%. An additional 1.0 μg of labeled tryptic peptide was removed from each channel, mixed together, desalted on a C18 stage tip, and analyzed via LC-MS to ensure equal relative protein loads. During these quality control steps, the labeled peptides were stored, unquenched at −80° C.

B1: Q32NZ6 (protein, UniProt Q32NZ6 1-967, looked up)
chain: MSSFHQNSSYMEDADYPGYSGSRNHTHNYLETQDYPEFPGSQNNPGFHHPRSNPHSSGSRTNPDYPYFQEEPDYPGSLSNTVYQDTRSHPFSAHSRTRPDYESSIEPDYNDFRSESYHAGLPMEPDYPGSQSHPGFAGVGRSSMNYTGPRTNLGYLGSLEEPDYPGAQDNSYYHSGSRPHSNLPGSRRDAGYAGSRINSYPDDLGEPDYPGAENQPNSPRFYGKPDYPGAEEGDGYSSSKSLAVIRRGNGPFGMLGRRNEDYPEGIGMVSMEMAGDPRNGYVNPAYTRRISPVCPDRNLLLCAHDWHTSVQGQKLIASLIPMTTRDRIKTIRNQPRTMQEKRELRKIVDKEKNKQSHGILEANCCAQCLGSLSLTYRRTRNGLSELLNYITLWQKRFKVIGGKFGTSVLSYFSFLRWLLKFNIFSFVMNFSFIIIPQFTVGAKNTLQFTGLEFFTGAGYFGDTVMYYGFYTNSTIRHRMGGASYNMQLAYIFTIGACLVVCFFSLLFSMAKYFRNNFINPHIYSRGIAKLIFCWDFTVTHEKAVKLKQKNLSTEIRENLSELRQENYRLTFNQQLTRFSAHVAAWLVSTGVTAACCVAVYYLAEYNSEFLKTHRNPGAVLLLPFVVSCINLAVPRFYSMFRLVERYEIPRQEVYVLLVRNIFLKISIVGILCYYWLNIVALSGEECWETLIGQDIYRLLLMDFVFSLADSLLGEFLRRLIGMKFTSLSLQEFDIARNVLELIYAQTLTWLGIFFCPLLPFIQMITLFIMFYVKNVSLMMNFQPPSKAWRASQMITFFIFLLFFPSFTGVLCTLAITIWRLKPSADCGPFRGLPSFIQSIYSWIDTLSRRPGYLWVVWIYQNLIGSVHFFFILTLIVLIITYLYWQITEGRKVMIRLLHEQIINEGKDKMFLIEKLTKLQDMEKRVNPSALDLERREVEPQIPLHLEELGAAPDLRLRRSAQEENPIA
modifications: full-length
Protein abundance, ENR+CD versus ENR organoids, aggregate of the four sample pairs
  Average logFC: 1.252
Protein abundance, ENR+CD versus ENR organoids, replicate M1-1, log2 ratio
  M1-1 Log2 Median Normalized: 1.76
Protein abundance, ENR+CD versus ENR organoids, replicate M1-2, log2 ratio
  M1-2 Log2 Median Normalized: 1.111
Protein abundance, ENR+CD versus ENR organoids, replicate M2-1, log2 ratio
  M2-1 Log2 Median Normalized: 1.2165
Protein abundance, ENR+CD versus ENR organoids, replicate M2-2, log2 ratio
  M2-2 Log2 Median Normalized: 1.252
Up = enriched in ENR+CD, down = enriched in ENR, FDR<0.05 and log fold change cut-off
  change: up
